Chains of the proteins cited; added tags and fusions are not shown. Lines headed by an entry give the natural chain unless they say otherwise; changes in a name come on top.
UniProt P21802, whole entry, looked up: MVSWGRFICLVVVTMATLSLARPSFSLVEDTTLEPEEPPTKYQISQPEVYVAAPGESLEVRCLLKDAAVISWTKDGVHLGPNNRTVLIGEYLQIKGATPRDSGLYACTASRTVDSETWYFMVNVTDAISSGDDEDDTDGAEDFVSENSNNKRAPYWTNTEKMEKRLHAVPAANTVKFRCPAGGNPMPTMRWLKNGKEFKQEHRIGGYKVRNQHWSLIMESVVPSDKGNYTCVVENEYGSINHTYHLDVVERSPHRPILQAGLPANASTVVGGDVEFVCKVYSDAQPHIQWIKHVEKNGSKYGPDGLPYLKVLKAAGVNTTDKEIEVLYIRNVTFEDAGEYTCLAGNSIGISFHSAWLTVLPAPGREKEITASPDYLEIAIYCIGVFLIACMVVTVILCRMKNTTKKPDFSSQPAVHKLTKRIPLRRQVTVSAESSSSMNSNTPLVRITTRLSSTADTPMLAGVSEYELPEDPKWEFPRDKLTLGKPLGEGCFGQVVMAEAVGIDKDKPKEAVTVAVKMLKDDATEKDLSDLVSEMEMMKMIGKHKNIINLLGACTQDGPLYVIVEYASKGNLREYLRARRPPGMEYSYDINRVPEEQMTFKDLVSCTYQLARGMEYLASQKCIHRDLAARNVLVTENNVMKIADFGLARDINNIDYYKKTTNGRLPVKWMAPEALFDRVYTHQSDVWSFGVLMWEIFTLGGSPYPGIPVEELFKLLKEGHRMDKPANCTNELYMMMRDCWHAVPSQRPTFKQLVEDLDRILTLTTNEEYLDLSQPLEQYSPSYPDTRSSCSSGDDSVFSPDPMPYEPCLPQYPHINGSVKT
UniProt P22455, whole entry, looked up: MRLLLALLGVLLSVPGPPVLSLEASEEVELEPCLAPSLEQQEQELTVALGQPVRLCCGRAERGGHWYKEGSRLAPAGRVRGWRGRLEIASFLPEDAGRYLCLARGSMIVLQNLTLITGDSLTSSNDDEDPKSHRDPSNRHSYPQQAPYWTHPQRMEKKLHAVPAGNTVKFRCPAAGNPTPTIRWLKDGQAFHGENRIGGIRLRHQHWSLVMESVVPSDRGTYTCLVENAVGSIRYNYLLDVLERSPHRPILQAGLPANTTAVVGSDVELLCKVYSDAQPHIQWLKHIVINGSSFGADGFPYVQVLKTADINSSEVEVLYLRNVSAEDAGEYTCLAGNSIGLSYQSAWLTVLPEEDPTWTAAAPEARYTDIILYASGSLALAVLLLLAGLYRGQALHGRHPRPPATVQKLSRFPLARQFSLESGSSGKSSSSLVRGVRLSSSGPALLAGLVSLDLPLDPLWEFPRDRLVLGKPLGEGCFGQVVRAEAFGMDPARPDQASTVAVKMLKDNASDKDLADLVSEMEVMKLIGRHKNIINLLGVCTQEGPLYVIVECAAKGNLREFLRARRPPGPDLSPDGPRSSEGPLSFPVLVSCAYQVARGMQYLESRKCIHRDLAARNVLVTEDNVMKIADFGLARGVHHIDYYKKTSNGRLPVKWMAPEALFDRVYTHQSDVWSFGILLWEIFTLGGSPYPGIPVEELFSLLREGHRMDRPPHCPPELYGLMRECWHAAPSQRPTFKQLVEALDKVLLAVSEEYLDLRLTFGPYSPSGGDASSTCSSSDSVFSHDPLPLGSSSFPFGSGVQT
UniProt O75747: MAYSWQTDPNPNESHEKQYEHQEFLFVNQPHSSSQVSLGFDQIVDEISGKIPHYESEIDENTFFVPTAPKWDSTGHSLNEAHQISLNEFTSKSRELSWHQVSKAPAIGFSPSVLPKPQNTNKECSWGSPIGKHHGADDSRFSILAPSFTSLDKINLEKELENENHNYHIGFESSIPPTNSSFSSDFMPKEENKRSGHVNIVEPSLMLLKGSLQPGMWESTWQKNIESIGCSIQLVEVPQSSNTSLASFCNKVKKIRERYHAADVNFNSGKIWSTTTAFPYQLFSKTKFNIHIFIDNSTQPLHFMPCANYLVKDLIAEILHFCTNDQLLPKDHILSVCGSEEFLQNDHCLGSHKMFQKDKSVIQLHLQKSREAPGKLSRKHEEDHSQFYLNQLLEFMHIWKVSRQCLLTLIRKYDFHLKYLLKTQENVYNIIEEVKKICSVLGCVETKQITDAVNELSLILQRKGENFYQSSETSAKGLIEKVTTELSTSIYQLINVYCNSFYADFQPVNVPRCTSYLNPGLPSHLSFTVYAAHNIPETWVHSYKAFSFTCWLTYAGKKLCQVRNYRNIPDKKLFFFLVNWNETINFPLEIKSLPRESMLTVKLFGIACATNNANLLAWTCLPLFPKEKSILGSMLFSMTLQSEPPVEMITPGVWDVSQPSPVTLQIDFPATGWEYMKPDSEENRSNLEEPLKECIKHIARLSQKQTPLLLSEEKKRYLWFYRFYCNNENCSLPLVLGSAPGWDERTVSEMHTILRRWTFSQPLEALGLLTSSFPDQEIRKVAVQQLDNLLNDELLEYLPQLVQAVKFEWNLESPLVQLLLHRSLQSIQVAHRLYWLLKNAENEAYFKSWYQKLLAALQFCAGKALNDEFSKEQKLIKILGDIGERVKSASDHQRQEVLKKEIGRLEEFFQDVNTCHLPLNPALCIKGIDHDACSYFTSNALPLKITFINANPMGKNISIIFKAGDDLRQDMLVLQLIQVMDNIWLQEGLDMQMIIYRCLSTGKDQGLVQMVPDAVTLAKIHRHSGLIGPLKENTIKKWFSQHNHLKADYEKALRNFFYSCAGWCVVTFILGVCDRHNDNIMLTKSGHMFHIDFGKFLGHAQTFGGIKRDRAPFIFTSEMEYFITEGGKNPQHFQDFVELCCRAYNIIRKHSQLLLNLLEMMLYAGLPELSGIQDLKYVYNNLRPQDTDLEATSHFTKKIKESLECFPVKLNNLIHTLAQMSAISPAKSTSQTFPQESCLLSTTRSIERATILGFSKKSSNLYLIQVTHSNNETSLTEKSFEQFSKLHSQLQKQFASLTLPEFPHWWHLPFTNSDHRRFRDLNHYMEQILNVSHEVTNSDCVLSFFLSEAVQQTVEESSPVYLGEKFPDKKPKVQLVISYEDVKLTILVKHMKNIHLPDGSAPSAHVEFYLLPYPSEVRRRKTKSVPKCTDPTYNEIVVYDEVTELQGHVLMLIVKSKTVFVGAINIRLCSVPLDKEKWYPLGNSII

In the kinase profiling compilation of Christmann-Franck et al. (2016):

Experiments:
Assay in all cases: KINOMEscan competition binding
Conditions in all cases: compound 10.0 µM
[1] = molecular target: FGFR2 (human) (UniProt P21802)
[2] = molecular target: FGFR4 (human) (UniProt P22455)
[3] = molecular target: PIK3C2G (human) (UniProt O75747)

Row | kinase still bound, per cent of control [1] [%] | kinase still bound, per cent of control [2] [%] | kinase still bound, per cent of control [3] [%] | Compound
1 | 2.9 | 17 |  | CCN(CC)CCCCNc1ncc2cc(-c3cc(OC)cc(OC)c3)c(NC(=O)NC(C)(C)C)nc2n1
2 |  |  | 27 | CS(=O)(=O)N1CCN(Cc2cc3nc(-c4cccc5[nH]ncc45)nc(N4CCOCC4)c3s2)CC1
